The target in experiment [1] is T1, NOPr (Homo sapiens, UniProt P41146). Nature of the experiment: BRET G-protein activation (GPA) assay, Gαi2, agonist and antagonist mode, Flp-In-NOPr-CHO cells. It is filed as cell-based. As to the method: The functional activity of congeners 11a-h was assessed in a bioluminescence resonance energy transfer (BRET) assay measuring NOPr activation of the Gαi2 G protein through release of Gβγ subunits in Flp-In-NOPr-Chinese hamster ovary (CHO) cells, as summarized in Figure a. The purpose of this assay was to determine whether the affinity and antagonist profile were retained after chemical modification of C24. To confirm an antagonist profile, we measured the ability of increasing concentrations of 11a-h (1 pM to 10 μM), 13g-h, and 14h (1 pM to 1 mM) to either stimulate Gai2 activation or to inhibit the action of an EC80 concentration of N/OFQ. Inhibition data were used to derive inhibitory potency (pIC50) values (Table ), which are indicative of the relative affinities of the various congeners.
2 G-protein activation (GPA) assay and corresponding NOPr ligand concentration–response curves for N-Boc-C24-congener (11a-h) and fluorescent-ligands (13g-h and 14h). Data represent the mean ± SEM of n = 4 experiments performed in duplicate. (a) Illustrative representation of the GPA assay–ligand-induced receptor activation causes G protein dissociation, releasing a Venus-tagged Gβγ (acceptor) to interact with a membrane-localized c-terminus of G protein-coupled receptor kinase 3 (masGRK3ct) fused to a renilla luciferase enzyme (RLuc8) (donor). In this assay, 11a-h (10 μM to 1 pM), 13g-h, and 14h (1 μM to 1 pM) were assessed in agonist mode; NOPr ligands in the absence of the competing agonist N/OFQ and, antagonist mode; NOPr ligands in the presence of a EC80 concentration of N/OFQ. After a 10 min incubation with the R-Luc substrate coelenterazine and NOPr ligands, luminescence was measured to quantify GPA as a BRET ratio between acceptor λem 535 nm/donor λem 475 nm. Concentration–response curves (b–e) showing GPA by NOPr ligands as a percentage of the maximal response to the endogenous agonist are shown for 11a-h in (b) agonist mode and (c) antagonist mode, and 13g-h and 14h in (d) agonist mode and (e) antagonist mode.
Flp-In CHO cells stably expressing SNAP-NOPr were transiently transfected with Gαi2 (2 μg), Gβ1-Venus (156–259)(1 μg), Gγ2-Venus(1–155)(1 μg), and masGRK3ct-RLuc8 (1 μg) using polyethylenimine (PEI) in a 1:6 DNA/PEI ratio. […]
Cells were then incubated with coelenterazine H (NanoLight Technology) (10 μL/well, 50 μM, 5 min, RT) before ligands were added to the 96-well plate with final ligand concentrations ranging from (10 μM-0.01 nM). […] Cells were incubated in the plate reader, and luminescence was read using dual emission detection at 475 nm (Rluc8 Donor) and 535 nm emission (BRET signal) at 10 and 30 min. Plates were read on a PHERAstar (BMG Lab Tech), and data were exported through MARS and analyzed using Prism (GraphPad, Version 10). […]
A general note: In BRET a luciferase serves as donor, and the signal depends on an acceptor being close.

Sequences of proteins named here, by UniProt entry; tags and fusion partners are left off. A change or cut given only in a name is not applied to a line headed by its entry.
UniProt P41146: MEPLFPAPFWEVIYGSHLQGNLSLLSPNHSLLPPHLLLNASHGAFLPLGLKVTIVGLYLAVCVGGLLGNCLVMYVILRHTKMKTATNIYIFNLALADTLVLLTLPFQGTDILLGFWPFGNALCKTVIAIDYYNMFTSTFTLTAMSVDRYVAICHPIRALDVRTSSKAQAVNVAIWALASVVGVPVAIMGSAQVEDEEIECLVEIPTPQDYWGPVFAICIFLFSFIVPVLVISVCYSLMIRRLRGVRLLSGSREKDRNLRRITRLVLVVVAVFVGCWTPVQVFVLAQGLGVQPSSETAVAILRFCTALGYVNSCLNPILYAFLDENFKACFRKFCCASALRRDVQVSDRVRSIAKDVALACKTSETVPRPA

Experiment [2] concerns the target T1, NOPr. Kind of experiment: TR-FRET equilibrium saturation binding, Lumi4Tb-SNAP-NOPr CHO membranes. How it is done:
The levels of specific binding (total – nonspecific) were calculated and used to determine the dissociation constant (K D) as a measure of affinity. Specific binding curves are shown in Supporting Figure S2. […] Nonetheless, both ligand high affinity and low background signal are promising properties for fluorescence-based studies at the NOPr, enabling low concentrations to be used and improving signal-to-noise ratio. To further investigate the binding characteristics 13g-h, kinetic studies were carried out.
(§1) For 13g-h, the homogeneous TR-FRET (HTRF) ratio [(acceptor λem (665 nM)/donor λem (620 nM) × 10000)] is plotted against ligand concentration (nM) for the total binding (solid circle) and nonspecific binding (NSB) (hollow circle). Kinetic binding of (c) 13g and (d) 13h to Lumi4-Tb SNAP-NOPr-CHO membranes was measured over 15 min to determine the NOPr Ligand kinetic parameters in Table . For each concentration applied (0–50 nM), the specific labeling (total-NSB) HTRF ratio × 10,000 is plotted against time (minutes). For end point saturation binding assays, data represent the mean ± SEM of n = 3 experiments performed in duplicate, and for kinetic binding studies, all data represent the mean of n = 3 experiments.
All ligands were prepared in TR-FRET buffer, consisting of Hanks’ Balanced Salt Solution (Sigma-Aldrich H6648) (KCl 5 mM, KH2PO4 0.4 mM, NaHCO3 4 mM, NaCl 137 mM, Na2HPO4 0.3 mM), Pluronic-F127 (0.02% w/v), DMSO (1% v/v), and glucose (1 mg.mL^–1), adjusted to pH 7.4. Membrane aliquots were thawed on ice prior to use, and membrane suspensions [membrane (0.05 μg.μL^–1), Gpp(NH)p (100 μM), and saponin (50 μg.mL^–1)] were prepared in TR-FRET buffer. To ensure homogeneity, the membrane suspension was passed through a 27-gauge needle before use. Measurements were made in low-binding 384-well optiplates (PerkinElmer) on a PHERAstar (BMG Labtech) plate reader using the HTRF module [337 nm excitation with dual emission detection at 620 nm (terbium cryptate donor) and 665 nm emission (fluorescent ligand acceptor)] at a focal height of 11.4 mm. Integration was started 60 μs post irradiation (4 flashes/well) for 400 μs, all saturation and competition binding experiments were carried out in duplicate wells, and data were reported as the mean HTRF ratio ((acceptoremission/donoremission)×10,000) from 3 repeat measurements ±SEM. Kinetic binding experiments were performed in singlet wells, and the data represent the mean of n = 3 experiments ±SEM.
Membrane solution (20 μL) was added, and the measurement was taken after a 2 h incubation at 37 °C. All data were converted to specific binding (total – nonspecific) and fitted using eq to determine K D. 2 HTRFratio×10,000=Bmax[FL]/(KD+[FL])
For orientation: TR-FRET usually uses a lanthanide donor and a delayed reading to cut background.

Experiment [3] deals with T1, NOPr. Nature of the experiment: TR-FRET kinetic binding, Lumi4-Tb-SNAP-NOPr-CHO membranes. The note with it: kinetically derived, 15 min, n = 3. How it is done: as §1, with “experiments. […]” for “experiments.”
All ligands were prepared in TR-FRET buffer, consisting of Hanks’ Balanced Salt Solution (Sigma-Aldrich H6648) (KCl 5 mM, KH2PO4 0.4 mM, NaHCO3 4 mM, NaCl 137 mM, Na2HPO4 0.3 mM), Pluronic-F127 (0.02% w/v), DMSO (1% v/v), and glucose (1 mg.mL^–1), adjusted to pH 7.4. […] Measurements were made in low-binding 384-well optiplates (PerkinElmer) on a PHERAstar (BMG Labtech) plate reader using the HTRF module [337 nm excitation with dual emission detection at 620 nm (terbium cryptate donor) and 665 nm emission (fluorescent ligand acceptor)] at a focal height of 11.4 mm. […]

Experiment [4] deals with T1, NOPr. Nature of the experiment: TR-FRET saturation binding of 13h in Na+/Gpp(NH)p or NMDG buffer. As to the method: To investigate the effect of Na^+ and guanine nucleotides on competition binding experiments, as discussed in Section , we decided to perform competition binding experiments in the presence (Figure a) and absence (Figure b) of 100 mM Na^+ ions, which are known to be a negative allosteric modulator of many GPCRs , and a nonhydrolyzable form of guanine triphosphate, Gpp(NH)p (100 mM). To maintain an equivalent ionic strength in the Na^+ free condition, 100 mM of the organic cation N-methyl-D-glucamine (NMDG) was included in the buffer.
Saturation and competition binding experiments were performed as previously described using different buffer conditions. In the sodium and Gpp(NH)-p, free condition experiments were carried out in buffer containing (20 mM HEPES, 100 mM NMDG, 6 mM MgCl2, 1 mM EGTA, and 1 mM EDTA, pH 7.4) and in the sodium and Gpp(NH)-p containing condition buffer containing (20 mM HEPES, 100 mM NaCl, 6 mM MgCl2, 1 mM EGTA, and 1 mM EDTA, pH 7.4) with 100 μM Gpp(NH)-p. […] For saturation experiments, increasing concentrations of 13h (0–400 nM) were used.
Gpp(NH)p (100 µM) + NMDG (100 mM) […]
Figure S4. TR-FRET saturation binding experiments to characterize the afKinity of Kluorescent ligand 13h in
buffers containing a) 100 mM Na+ and 100 mM Gpp(NH)p or b) 100 mM NMDG. The binding of increasing
concentrations of 13h (0-400 nM) to Lumi4-Tb SNAP-NOPr-CHO membranes in the presence (non-speciRic)(black
circle) and absence (total-binding) (hollow circle) of SB612111 was assessed after 2 hrs at 37° C. The homogenous
TR-FRET (HTRF) ratio ((acceptor lem (665 nM) /donor lem (620 nM) ´ 10000) is plotted against ligand
concentration (nM) for each condition. SpeciRic binding curves (total - non-speciRic) (black circle) are shown for 13h
in both c) Na+ and Gpp(NH)p and d) NMDG condition. All data represent the mean ± SEM of n=3 experiments
mean ± SEM of n=3 eperiments performed in duplicate.
+ Na+ and Gpp(NH)p + NMDG

The text below walks through data of paper PMC12833874 (Journal of Medicinal Chemistry, 2025).

Structures are written as SMILES. pIC50, pKd: −log10 of the molar value.

Consider `CN1/C(=C/C=C/C=C/C2=[N+](CCCCCC(=O)NCCOc3ccc(CN4CCC[C@@H]4C(=O)NCCCN4CCC5(CC4)OCc4ccccc45)cc3)c3ccc(S(=O)(=O)[O-])cc3C2(C)C)C(C)(C)c2cc(S(=O)(=O)[O-])ccc21.[K+]` [13h, Potassium 1-(6-((2-(4-(((R)-2-((3-(3H-Spiro[isobenzofuran-1,4′-piperidin]-1′-yl)propyl)carbamoyl)pyrrolidin-1-yl)methyl)phenoxy)ethyl)amino)-6-oxohexyl)-3,3-dimethyl-2-((1E,3E)-5-((E)-1,3,3-trimethyl-5-sulfonatoindolin-2-ylidene)penta-1,3-dien-1-yl)-3H-indol-1-ium-5-sulfonate], for which the negative-log IC50 (pIC50) at NOPr [1] (IC50, antagonist mode, inhibition of EC80 concentration of N/OFQ, n = 4 in duplicate) was 6.92; at NOPr [1] (NOP pIC50 ± SEM, supplementary csv, GPA assay antagonist mode), 6.93; at NOPr [1] (pIC50 ± SEM, antagonist mode, inhibition of EC80 concentration of N/OFQ, n = 4 in duplicate) it was 6.90. For the same compound, the 50% inhibitory concentration (IC50) on NOPr [1] (NOP IC50 (nM), supplementary csv, GPA assay antagonist mode) is 117 nM. In addition, the Kd on NOPr [2] (2 h, 37 °C, n = 3, read-out: saturation KD (converted)) is 5.6 nM; at NOPr [2] (2 h, 37 °C, n = 3, read-out: saturation pKD (converted)) it was 5.01 nM; on NOPr [2] (Table 3, equilibrium saturation binding, read-out: KD NOPr (converted)) it was 5.6 nM; at NOPr [2] (Table 3, equilibrium saturation binding, read-out: pKD ± SEM NOPr (converted)), 5.01 nM; on NOPr [3] (read-out: kinetic KD (converted)), 6 nM; at NOPr [3] (read-out: kinetic pKD (converted)), 5.75 nM. Also, the Kd was 17 nM at NOPr [4] (100 mM NMDG, read-out: Saturation pKD, + NMDG (converted)); 8.32 nM on NOPr [4] (100 mM Na+, 100 μM Gpp(NH)p, read-out: Saturation pKD, + Na+ and Gpp(NH)p (converted)). The pKd at NOPr [4] (100 mM NMDG, read-out: Saturation KD, + NMDG) is 7.77; on NOPr [4] (100 mM Na+, 100 μM Gpp(NH)p, read-out: Saturation KD, + Na+ and Gpp(NH)p), 8.08.

By pIC50 is commonly meant the negative decadic logarithm of the IC50, by convention in mol/L. What is called IC50 is the concentration at which inhibition is half-maximal. The low end stands for greater potency, the high end for weaker potency.
